Measurements: publication PMC10060303, “Interactions of fentanyl with blood platelets and plasma proteins: platelet sensitivity to prasugrel metabolite is not affected by fentanyl under in vitro conditions” (2023)
Only a part of the results on these compounds is given; other tests are left out.

Sequences of proteins named here, by UniProt entry; tags and fusion partners are left off. Residues count along the entry.
UniProt P04114, 28-4563 limits assumed: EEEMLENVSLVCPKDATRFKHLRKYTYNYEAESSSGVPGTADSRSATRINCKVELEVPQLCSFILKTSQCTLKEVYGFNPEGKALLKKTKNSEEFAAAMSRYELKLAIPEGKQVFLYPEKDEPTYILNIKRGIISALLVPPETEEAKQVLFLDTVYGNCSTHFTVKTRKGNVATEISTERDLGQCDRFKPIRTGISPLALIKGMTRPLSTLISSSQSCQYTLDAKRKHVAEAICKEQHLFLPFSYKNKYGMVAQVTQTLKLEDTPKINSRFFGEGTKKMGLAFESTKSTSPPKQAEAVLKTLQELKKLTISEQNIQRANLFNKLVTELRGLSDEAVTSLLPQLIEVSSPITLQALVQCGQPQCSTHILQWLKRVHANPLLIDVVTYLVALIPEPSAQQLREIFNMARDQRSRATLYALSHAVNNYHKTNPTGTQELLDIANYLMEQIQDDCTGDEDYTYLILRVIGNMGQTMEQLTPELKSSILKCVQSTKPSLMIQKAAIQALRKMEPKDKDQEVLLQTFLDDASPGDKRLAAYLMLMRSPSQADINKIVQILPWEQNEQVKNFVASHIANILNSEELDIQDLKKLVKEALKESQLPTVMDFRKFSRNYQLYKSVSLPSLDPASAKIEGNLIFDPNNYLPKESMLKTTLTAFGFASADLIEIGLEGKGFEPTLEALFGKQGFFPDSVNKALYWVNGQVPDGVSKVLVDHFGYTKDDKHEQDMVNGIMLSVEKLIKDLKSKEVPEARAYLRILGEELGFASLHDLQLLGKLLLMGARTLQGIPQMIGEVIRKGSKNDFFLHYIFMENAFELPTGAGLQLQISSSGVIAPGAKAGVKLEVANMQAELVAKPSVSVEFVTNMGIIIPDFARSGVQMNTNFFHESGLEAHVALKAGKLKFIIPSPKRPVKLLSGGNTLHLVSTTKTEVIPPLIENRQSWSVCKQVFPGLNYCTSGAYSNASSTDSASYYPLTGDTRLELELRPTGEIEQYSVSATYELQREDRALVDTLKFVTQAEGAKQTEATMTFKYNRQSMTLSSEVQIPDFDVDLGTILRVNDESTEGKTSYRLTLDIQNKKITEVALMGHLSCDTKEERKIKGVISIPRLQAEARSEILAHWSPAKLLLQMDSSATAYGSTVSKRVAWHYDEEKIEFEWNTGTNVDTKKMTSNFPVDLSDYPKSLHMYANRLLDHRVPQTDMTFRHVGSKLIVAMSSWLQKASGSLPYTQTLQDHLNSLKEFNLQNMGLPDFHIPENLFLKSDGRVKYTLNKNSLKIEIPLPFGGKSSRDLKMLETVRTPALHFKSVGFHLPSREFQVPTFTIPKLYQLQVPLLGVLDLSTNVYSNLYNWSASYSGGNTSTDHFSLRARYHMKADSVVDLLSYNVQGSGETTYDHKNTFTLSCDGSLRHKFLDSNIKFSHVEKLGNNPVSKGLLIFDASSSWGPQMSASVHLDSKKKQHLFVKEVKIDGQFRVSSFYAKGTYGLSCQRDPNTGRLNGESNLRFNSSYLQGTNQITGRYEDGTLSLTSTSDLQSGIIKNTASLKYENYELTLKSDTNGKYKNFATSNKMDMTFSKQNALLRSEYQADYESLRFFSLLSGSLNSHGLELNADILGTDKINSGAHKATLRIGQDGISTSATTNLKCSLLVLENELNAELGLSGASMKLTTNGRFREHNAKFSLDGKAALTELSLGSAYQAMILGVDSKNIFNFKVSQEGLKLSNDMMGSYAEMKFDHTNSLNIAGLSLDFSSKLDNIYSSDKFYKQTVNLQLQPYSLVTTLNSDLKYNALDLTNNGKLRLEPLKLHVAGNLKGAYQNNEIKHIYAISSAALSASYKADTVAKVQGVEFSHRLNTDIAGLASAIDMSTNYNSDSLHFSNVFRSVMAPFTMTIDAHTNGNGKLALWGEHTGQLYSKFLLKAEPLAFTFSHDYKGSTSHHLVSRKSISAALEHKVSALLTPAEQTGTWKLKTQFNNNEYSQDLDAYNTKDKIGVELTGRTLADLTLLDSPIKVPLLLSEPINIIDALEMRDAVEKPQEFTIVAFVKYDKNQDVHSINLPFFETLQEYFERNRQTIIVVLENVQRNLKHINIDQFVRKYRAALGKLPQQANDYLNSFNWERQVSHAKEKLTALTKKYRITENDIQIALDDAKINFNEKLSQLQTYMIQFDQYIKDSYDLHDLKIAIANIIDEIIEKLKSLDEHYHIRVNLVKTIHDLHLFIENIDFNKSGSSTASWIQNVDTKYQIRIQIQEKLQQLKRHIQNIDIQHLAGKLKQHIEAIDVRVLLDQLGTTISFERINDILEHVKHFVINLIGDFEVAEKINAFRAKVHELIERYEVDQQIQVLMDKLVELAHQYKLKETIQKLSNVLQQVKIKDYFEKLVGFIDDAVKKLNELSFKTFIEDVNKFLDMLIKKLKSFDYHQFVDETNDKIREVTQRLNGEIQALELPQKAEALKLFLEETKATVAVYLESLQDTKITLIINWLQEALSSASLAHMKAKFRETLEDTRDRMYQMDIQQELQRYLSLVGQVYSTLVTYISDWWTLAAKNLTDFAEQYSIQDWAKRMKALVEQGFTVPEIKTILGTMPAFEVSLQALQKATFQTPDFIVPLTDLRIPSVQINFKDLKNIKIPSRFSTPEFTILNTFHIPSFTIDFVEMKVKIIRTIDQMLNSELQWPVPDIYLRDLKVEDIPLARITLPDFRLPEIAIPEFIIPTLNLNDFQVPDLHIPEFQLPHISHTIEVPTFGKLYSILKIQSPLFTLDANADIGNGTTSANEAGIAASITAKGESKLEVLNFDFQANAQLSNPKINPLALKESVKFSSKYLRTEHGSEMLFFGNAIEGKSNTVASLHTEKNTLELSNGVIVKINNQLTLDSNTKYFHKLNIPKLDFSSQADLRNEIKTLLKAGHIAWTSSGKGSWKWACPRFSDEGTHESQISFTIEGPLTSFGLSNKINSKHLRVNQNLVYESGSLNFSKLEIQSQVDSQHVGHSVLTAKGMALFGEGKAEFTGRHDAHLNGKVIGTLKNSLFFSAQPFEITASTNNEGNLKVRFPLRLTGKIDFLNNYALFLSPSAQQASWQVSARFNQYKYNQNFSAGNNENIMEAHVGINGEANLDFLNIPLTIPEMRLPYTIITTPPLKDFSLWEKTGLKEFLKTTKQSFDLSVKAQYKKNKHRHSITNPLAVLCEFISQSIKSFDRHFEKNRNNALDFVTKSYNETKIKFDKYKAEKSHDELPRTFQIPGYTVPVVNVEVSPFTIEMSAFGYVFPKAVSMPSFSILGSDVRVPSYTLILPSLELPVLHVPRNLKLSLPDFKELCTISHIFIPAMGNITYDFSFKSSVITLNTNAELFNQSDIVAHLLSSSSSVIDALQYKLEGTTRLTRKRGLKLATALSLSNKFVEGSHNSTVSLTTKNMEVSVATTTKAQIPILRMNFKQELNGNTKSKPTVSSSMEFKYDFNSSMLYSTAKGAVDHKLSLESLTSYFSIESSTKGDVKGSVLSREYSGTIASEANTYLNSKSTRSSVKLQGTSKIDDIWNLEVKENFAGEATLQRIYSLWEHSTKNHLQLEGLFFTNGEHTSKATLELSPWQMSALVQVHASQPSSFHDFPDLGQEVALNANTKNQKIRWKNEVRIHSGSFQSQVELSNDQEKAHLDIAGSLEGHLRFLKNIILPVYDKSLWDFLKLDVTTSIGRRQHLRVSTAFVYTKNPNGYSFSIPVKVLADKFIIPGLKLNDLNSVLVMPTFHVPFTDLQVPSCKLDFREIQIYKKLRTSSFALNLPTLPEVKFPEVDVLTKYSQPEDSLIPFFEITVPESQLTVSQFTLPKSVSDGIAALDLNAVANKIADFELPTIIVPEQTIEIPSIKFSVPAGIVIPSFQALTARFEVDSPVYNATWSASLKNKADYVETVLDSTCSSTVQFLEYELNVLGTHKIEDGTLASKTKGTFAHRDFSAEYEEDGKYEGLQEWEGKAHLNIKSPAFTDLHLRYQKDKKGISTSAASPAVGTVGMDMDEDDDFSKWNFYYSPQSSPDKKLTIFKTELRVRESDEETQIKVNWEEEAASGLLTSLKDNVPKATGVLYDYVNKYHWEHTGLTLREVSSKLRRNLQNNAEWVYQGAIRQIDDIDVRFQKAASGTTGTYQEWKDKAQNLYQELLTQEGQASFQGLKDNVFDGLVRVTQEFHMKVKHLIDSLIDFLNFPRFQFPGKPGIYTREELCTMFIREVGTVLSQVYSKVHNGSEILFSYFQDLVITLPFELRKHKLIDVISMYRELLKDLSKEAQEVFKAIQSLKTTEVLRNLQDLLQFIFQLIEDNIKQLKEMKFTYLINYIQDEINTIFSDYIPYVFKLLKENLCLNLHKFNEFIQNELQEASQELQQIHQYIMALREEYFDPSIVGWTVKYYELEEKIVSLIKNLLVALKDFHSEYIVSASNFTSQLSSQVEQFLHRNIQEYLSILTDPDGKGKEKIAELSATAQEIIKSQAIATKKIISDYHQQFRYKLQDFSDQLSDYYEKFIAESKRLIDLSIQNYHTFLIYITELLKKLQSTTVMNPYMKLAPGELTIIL
UniProt P02647, 19-267 limits assumed: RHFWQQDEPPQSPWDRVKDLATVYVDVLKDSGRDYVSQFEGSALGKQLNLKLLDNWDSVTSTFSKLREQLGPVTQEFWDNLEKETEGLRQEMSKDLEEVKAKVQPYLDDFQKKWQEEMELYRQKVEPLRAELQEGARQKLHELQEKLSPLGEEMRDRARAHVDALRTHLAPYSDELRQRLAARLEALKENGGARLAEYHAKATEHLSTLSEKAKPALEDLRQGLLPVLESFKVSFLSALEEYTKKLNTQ

Columns and labels:
[1] = biological target: apolipoprotein B-100 (ApoB-100) (Homo sapiens, UniProt P04114); test: Surface plasmon resonance binding to immobilized ApoB-100; details: SPR, 25 °C, HBS-EP pH 7.4, ligand ApoB-100
[2] = biological target: apolipoprotein A-1 (ApoA-1) (Homo sapiens, UniProt P02647); test: Surface plasmon resonance binding to immobilized ApoA-1; details: SPR, 25 °C, HBS-EP pH 7.4, ligand ApoA-1
[3] = system: α1-acid glycoprotein (α1-AGP); test: Surface plasmon resonance binding to immobilized α1-AGP; details: SPR, 25 °C, HBS-EP pH 7.4, ligand α1-AGP

Row | Structure (SMILES) | KA [1] | ka [1] | kd [1] | ka [2] | kd [2] | KA [3] | kd [3] | Kd [1] [µM]
1 | CCC(=O)N(c1ccccc1)C1CCN(CCc2ccccc2)CC1.O=C(O)CC(O)(CC(=O)O)C(=O)O | 5.41 ± 1.10 × 10^3 M^−1 | 1.34 ± 0.16 × 10^2 M^−1 × s^−1 | 2.52 ± 0.25 × 10^−2 s^−1 | 3.42 ± 0.22 × 10^2 M^−1 × s^−1 | 1.18 ± 1.15 × 10^−6 s^−1 | 2.69 ± 4.66 × 10^8 M^−1 | 4.22 ± 4.44 × 10^−3 s^−1 | –
2 | CCC(=O)N(c1ccccc1)C1CCN(CCc2ccccc2)CC1 | – | – | – | – | – | – | – | 191
